Test results as given in patent US20190374607A1.

Protein sequences, listed by entry. Tags and fused reporters are not part of them. Residues count along the entry.
UniProt P48061, 22-89 limits assumed: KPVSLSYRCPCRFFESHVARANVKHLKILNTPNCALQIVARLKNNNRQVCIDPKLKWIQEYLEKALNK

Biological target: Wild-type CXCL12 (CXCL12α) (Homo sapiens (Human)) (UniProt P48061)
Test: CXCL12 self-association with the sTyr21 sulfopeptide present against without it; method not named

Substance: Wild-type CXCL12 (CXCL12α) (from UniProt P48061 22-89) (ligand; other documents disagree on this pair)
- fold increase of CXCL12 dimerization affinity: 8 fold
